This is a selection; strong and weak results do not stand in their true shares. Some tests of the compounds listed are not included; inactive here does not mean inactive elsewhere. Calls of active or inactive are those of the source.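 How the source made its calls: active means growth inhibition at or above a cutoff equal to the mean over every tested compound plus 3 SD (cut at about 60% in these data); inactive means the rest.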
Assay: growth inhibitors of E. coli tolC mutant, primary screen, strain BW25113 ΔtolC::kan, 384-well (AID 573);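 further: growth measured after 20 h incubation at 37 °C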
Details: OD615, active compounds read high, screened at 10 µM (by protocol)
Method in brief: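 test system = E. coli BW25113 ΔtolC::kan bacteria | medium = LB with kanamycin 50 µg/mL | signal = OD at 615 nm | schedule = 37 °C, 20 h exposure | evaluation = % inhibition of E. coli growth | compound dosing = one dose of 10 µM final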

SMILES	growth inhibition
O=C(OC1CN2CCC1CC2)C(CO)(c1ccccc1)c1ccccc1 (configuration not stated)	inactive: -21.1%
CN(C)c1cccc(C(=O)NCC2(N(C)C)CCCCC2)c1	inactive: -12.6%

Reference: PubChem BioAssay AID573 (SRMLSC, 2007)
